System: murine adenocarcinoma (1471.1) cells
Test: Cytotoxicity after illumination, WST-8 assay
Assay type: cell-based
Conditions: 4 hours incubation
Protocol: The IC50 (concentration that inhibits growth by 50%) was determined utilizing a WST-8 assay. Four thousand cells were seeded into 96 well plates and incubated overnight in a humidified atmosphere containing 5% CO2. Varying concentrations of free Mce6 and Cort-Lys-Mce6 or HPMA copolymer-bound Mce6 conjugates (P-GFLG-Cort-Lys-Mce6 and P-GFLG-Mce6) were added to each well. Incubation was carried out for 4 hours in the case of free Mce6 and Cort-Lys-Mce6. The incubation period was 10 hours in the case of the HPMA copolymer-bound Mce6 conjugates. After the period of incubation, the media containing the drug was removed and 100 μL of fresh media was added and the cells were promptly illuminated for 30 min. The light source was three ENH Tungsten halogen lamps (120 V/250 W) placed in parallel, attenuated by three band-pass interference filters (Melles Griot Co., Carlsbad, Calif.). The light energy was approximately 2 mW cm^−2 as determined using a radiometer.
After illumination, the cells were incubated in a humidified atmosphere containing 5% CO2 for 24 hours. The media was replaced with 100 μL fresh media containing 10 μL of WST-8. After two hours incubation, the absorbance was read at 450 nm with background correction at 630 nm. […] Percentage of viable cells was calculated by dividing the mean absorbance of each well by the absorbance of the untreated cells. […]

alpha-N-(Cortisol-C17-carbamoyl)-Lysyl-Mesochlorin ethyl amide [Cort-Lys-Mce6]
times more cytotoxic than free Mce6: about 2.5 times

Source: patent US20070287680A1, “Combined Active and Passive Targeting of Biologically Active Agents” (University of Utah Research Foundation, priority 2004, published 2007)
